Binding of CDR-mutated scFvs to a peptide of the spike HR2 region

Reference: Li et al. 2023, doi:10.1038/s41467-023-39022-2. File: FLAb, binding data.

Antigen: PDVDLGDISGINAS, a 14-residue peptide of the SARS-CoV-2 spike HR2 region.

Parent scFv Ab-14: VH joined to VL by a (GGGGS)3 linker. Changes lie in the heavy chain CDRs alone.
VH: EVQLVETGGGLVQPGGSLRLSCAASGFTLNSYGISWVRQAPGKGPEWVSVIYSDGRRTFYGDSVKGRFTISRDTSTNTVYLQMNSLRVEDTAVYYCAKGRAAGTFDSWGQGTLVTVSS
VL: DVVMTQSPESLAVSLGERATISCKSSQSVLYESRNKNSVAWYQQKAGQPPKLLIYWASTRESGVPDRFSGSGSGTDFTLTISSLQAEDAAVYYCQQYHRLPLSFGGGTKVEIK

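The starting antibody came from a phage panning campaign against this peptide. These sequences belong to a second round, designed from the earlier measurements on random variants of the parent. Group labels follow the data file (Ctrl: baseline library sampled from a position-specific scoring matrix, with some repeated check sequences; GPLM: also part of the Gaussian process libraries; HC: hill climbing; a sequence that several methods proposed may carry one label only). In AlphaSeq, yeast of one mating type display the scFv and yeast of the other type display the target. Mating (16 h, 30 °C) was followed by selection of diploids and sequencing of their barcodes. Each replicate has its own calibration line, from reference interactions of the BCL2 family. Mating was done six times.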

The parent's heavy chain CDRs are GFTLNSYGIS, VIYSDGRRTFYGDSVK, GRAAGTFDS; each variant's own CDRs replace them letter for letter.
Affinities are written as log10 Kd with Kd in nM; a lower number is a better binder.
Where no diploid with the target was found in that replicate, the entry reads "n.d.": below detection, most likely a poor binder, though not proof of it.

CDR-H1	CDR-H2	CDR-H3	group	log10 Kd (nM) by replicate	signal with controls
GFTLNSYGIS	VIYADGRRTMYGDSVK	GREAHTFDS	Ctrl	n.d. / n.d. / n.d. / n.d. / n.d. / n.d.	0/18
GFTLNSYGIS	VIYSDGRRTFYGDSVK	GRQAGQFDS	Ctrl	n.d. / n.d. / 0.44 / n.d. / n.d. / n.d.	0/18
GFTLNDYGIS	VIYSDGRRTFMGDSVK	GRTAVTFDS	Ctrl	n.d. / n.d. / n.d. / n.d. / n.d. / n.d.	0/18
GFTLNSYGIS	VIYSDGRRTFYSDSVK	GIAAFTVDS	Ctrl	n.d. / 0.80 / -0.24 / 0.37 / -0.26 / 0.54	1/18 (0.92)
GFTINSYGIS	VIYFDGRRTFYTDSVK	GRWAGSFDS	Ctrl	n.d. / n.d. / n.d. / n.d. / n.d. / n.d.	0/18
GFTLNSFGIS	VIYSDGRRTFYGDSVK	GRLAGTKDS	Ctrl	n.d. / n.d. / n.d. / n.d. / n.d. / n.d.	0/18
GFTLNDYGIS	VIYSDGRRKFYGDSVK	GRAAGTFDS	Ctrl	0.95 / -0.20 / 0.64 / 0.05 / 0.17 / 3.04	1/18 (0.40)
GFTLNSYGIS	VIYSDGRRTFYGDSVK	GKAAGWFES	Ctrl	n.d. / n.d. / n.d. / n.d. / n.d. / n.d.	0/18
LTTLNSYGIS	VIYSDGRRTFYGDSVK	GRQAGFFMS	Ctrl	n.d. / n.d. / n.d. / n.d. / n.d. / n.d.	0/18
GFTLNSYGIS	VIYSDGMRCFYADSVK	GRAAGTFDT	Ctrl	n.d. / n.d. / n.d. / n.d. / n.d. / n.d.	0/18
GFTLNSYGIS	VIYSDGRRTFYQDSVK	GRVAGQFDS	Ctrl	n.d. / n.d. / n.d. / n.d. / n.d. / n.d.	0/18
GFTLNSYGIS	VIYSDGRRTFYGDSVE	GRAAGTFDS	Ctrl	n.d. / 1.86 / n.d. / n.d. / 1.58 / n.d.	0/18
GFTLNSYGIS	VIYSDGRRTFYGQSVK	GRAAGTADS	Ctrl	n.d. / n.d. / n.d. / n.d. / n.d. / n.d.	0/18
GFSLNQYGSS	VIYSDGRRTFYGDSVK	GRAACTFDS	Ctrl	n.d. / n.d. / n.d. / n.d. / n.d. / n.d.	0/18
GFTLNSYGIS	VIYSDGVRTFYSDSVK	GRAAGTFDS	Ctrl+GPLM_HC	0.87 / 0.72 / 0.47 / 0.64 / 0.81 / 0.55; 0.70 / 0.82 / 0.85 / 0.85 / 0.82 / 0.62	0/36
GQDLNSYGIS	VIYSDGRRTFYGDSVK	GRLAGTFDS	Ctrl	2.06 / 1.67 / 1.53 / 1.98 / 1.83 / 1.90	0/18
GFDLNSYGIS	VIYSDGRRTFYGDSVA	GQAAGTFDQ	Ctrl	0.70 / 0.46 / 0.56 / 0.47 / 0.59 / 0.54	1/18 (2.92)
SFALNDYGIS	VIYSDGRRTFYGDSVK	GRQTGTFDS	Ctrl	n.d. / n.d. / n.d. / n.d. / n.d. / n.d.	0/18
GFTLNEYGIS	VIYSDGRRTFYIDSVK	GRADGTFDS	Ctrl	n.d. / n.d. / n.d. / n.d. / n.d. / n.d.	0/18
GFTLSSYGIS	VIYADGRRTFYTDSVK	GRAAGTFDS	Ctrl	0.44 / 0.52 / 0.46 / 0.46 / 0.37 / 0.64	0/18
GFTLEDYGIS	VIYSDGRRTSYGDSVK	TREAGHFDS	Ctrl	n.d. / n.d. / n.d. / n.d. / n.d. / n.d.	1/18 (2.30)
GFPLDSYGIS	VIYSDGRRTFYSDSVK	GRAAFTFDS	Ctrl	n.d. / n.d. / n.d. / n.d. / n.d. / n.d.	0/18
GFTVGSQGIS	VIYSDGKRTFYGDSVK	GRAAGTFDS	Ctrl	n.d. / n.d. / n.d. / n.d. / n.d. / n.d.	0/18
GFTLNSYGIS	VIYSDGRRTFYVDSVK	RHAAGTFDS	Ctrl	n.d. / n.d. / n.d. / n.d. / n.d. / n.d.	0/18
GVALNSYGIS	VIYSDGRRTFYIDSVK	GRAAGTFDT	Ctrl	n.d. / n.d. / n.d. / n.d. / n.d. / n.d.	0/18
GFTLNSYGIS	VIYSDGRRTFYTDSVK	GRAAGTFDS	Ctrl	n.d. / n.d. / 0.52 / n.d. / n.d. / n.d.	0/18
GFNLNSYGIS	VIYSDGLRDFYGDSVK	GEAAGTFFS	Ctrl	n.d. / n.d. / n.d. / n.d. / n.d. / n.d.	0/18
GFNLNSYGIT	VIYSDGRRTFYGDSVK	GRAEGTFDS	Ctrl	n.d. / 3.95 / n.d. / n.d. / n.d. / n.d.	1/18 (1.58)
GFALNSYGIS	VIYSDGRRTFMGDSVK	GPAAGTFSS	Ctrl	n.d. / n.d. / n.d. / n.d. / n.d. / n.d.	0/18
GFTLNNYGYS	VIYSDGRRTFYTDSVK	GRADGTFDS	Ctrl	n.d. / n.d. / n.d. / n.d. / n.d. / n.d.	0/18
GITLNSYGIS	VIYSDGRRTFYGDSVK	GRLAGTFDS	Ctrl	n.d. / n.d. / n.d. / n.d. / n.d. / n.d.	1/18 (2.99)
GFTLNSYGIS	VIYSDGRRTFYGDQVK	GEAAGTFNY	Ctrl	n.d. / n.d. / 1.33 / n.d. / n.d. / n.d.	0/18
GFTPNSYGIS	VIYSDGRRTFYGDSVK	GEAAGTFRS	Ctrl	n.d. / n.d. / n.d. / n.d. / n.d. / n.d.	0/18

Extract of 2 entries:

CDR-H1,CDR-H2,CDR-H3,group,log10 Kd (nM) by replicate,signal with controls
GFTLNSYGIS,VIYSDGRRTFYVDSVK,RHAAGTFDS,Ctrl,n.d. / n.d. / n.d. / n.d. / n.d. / n.d.,0/18
GFPLDSYGIS,VIYSDGRRTFYSDSVK,GRAAFTFDS,Ctrl,n.d. / n.d. / n.d. / n.d. / n.d. / n.d.,0/18

Where one sequence has several entries in the source, the replicates are listed entry by entry, parted by semicolons.
Of ten entries with the parent sequence, four were seen in most replicates (averages 0.34 to 2.37), three in one and three in none, so single entries are noisy.
Values of this round are not directly comparable with the first-round values of the same sequences.
Background: pairings of all heavy chain designs with three empty control strains gave a value in 1% of cases (median 2.08, 5th percentile 0.84). Values in that range, when seen in few replicates, are hard to tell from nonspecific mating. For each scFv, signals with the empty controls are counted beside the result, with their mean in brackets.
The authors averaged sequences with at least three values out of six and counted those with two or fewer as poor binders.